Key:
[1] = target: T1, Nitric oxide synthase, inducible (Mus musculus, UniProt P29477); assay: Inhibition of mouse recombinant iNOS expressed in Escherichia coli by hemoglobin capture assay
T1 sequence (P29477 whole entry): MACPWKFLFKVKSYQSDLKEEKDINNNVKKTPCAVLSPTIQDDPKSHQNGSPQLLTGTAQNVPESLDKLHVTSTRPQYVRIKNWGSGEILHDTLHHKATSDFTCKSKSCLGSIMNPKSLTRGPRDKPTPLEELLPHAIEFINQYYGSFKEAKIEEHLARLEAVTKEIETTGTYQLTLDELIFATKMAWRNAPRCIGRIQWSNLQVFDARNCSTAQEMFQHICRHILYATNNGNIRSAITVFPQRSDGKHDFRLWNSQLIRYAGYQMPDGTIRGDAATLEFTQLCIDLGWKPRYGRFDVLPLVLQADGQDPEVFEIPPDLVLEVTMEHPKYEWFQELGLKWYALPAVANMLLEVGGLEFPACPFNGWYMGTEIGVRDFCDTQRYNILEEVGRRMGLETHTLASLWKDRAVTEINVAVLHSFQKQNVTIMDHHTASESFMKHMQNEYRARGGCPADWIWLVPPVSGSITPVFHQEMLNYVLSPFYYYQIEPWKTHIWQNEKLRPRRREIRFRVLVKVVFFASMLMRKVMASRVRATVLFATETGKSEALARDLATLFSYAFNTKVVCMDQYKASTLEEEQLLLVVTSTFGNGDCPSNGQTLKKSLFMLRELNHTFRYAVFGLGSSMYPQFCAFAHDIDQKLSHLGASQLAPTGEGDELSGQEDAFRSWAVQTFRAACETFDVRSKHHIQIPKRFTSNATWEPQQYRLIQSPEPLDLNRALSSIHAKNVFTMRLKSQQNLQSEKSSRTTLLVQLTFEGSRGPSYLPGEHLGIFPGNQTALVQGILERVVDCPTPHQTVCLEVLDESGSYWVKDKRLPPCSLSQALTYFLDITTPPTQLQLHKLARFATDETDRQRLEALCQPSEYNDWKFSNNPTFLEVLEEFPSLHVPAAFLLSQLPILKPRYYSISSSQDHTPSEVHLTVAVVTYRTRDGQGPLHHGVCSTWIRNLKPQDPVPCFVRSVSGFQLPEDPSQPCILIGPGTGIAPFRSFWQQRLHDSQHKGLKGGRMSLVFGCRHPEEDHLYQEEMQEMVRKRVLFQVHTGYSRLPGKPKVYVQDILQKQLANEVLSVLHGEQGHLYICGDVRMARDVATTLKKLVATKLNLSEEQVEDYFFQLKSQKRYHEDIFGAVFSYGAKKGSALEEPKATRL

By UniProt entry, the sequences of proteins in these tests, tags left out.
UniProt P29476, whole entry: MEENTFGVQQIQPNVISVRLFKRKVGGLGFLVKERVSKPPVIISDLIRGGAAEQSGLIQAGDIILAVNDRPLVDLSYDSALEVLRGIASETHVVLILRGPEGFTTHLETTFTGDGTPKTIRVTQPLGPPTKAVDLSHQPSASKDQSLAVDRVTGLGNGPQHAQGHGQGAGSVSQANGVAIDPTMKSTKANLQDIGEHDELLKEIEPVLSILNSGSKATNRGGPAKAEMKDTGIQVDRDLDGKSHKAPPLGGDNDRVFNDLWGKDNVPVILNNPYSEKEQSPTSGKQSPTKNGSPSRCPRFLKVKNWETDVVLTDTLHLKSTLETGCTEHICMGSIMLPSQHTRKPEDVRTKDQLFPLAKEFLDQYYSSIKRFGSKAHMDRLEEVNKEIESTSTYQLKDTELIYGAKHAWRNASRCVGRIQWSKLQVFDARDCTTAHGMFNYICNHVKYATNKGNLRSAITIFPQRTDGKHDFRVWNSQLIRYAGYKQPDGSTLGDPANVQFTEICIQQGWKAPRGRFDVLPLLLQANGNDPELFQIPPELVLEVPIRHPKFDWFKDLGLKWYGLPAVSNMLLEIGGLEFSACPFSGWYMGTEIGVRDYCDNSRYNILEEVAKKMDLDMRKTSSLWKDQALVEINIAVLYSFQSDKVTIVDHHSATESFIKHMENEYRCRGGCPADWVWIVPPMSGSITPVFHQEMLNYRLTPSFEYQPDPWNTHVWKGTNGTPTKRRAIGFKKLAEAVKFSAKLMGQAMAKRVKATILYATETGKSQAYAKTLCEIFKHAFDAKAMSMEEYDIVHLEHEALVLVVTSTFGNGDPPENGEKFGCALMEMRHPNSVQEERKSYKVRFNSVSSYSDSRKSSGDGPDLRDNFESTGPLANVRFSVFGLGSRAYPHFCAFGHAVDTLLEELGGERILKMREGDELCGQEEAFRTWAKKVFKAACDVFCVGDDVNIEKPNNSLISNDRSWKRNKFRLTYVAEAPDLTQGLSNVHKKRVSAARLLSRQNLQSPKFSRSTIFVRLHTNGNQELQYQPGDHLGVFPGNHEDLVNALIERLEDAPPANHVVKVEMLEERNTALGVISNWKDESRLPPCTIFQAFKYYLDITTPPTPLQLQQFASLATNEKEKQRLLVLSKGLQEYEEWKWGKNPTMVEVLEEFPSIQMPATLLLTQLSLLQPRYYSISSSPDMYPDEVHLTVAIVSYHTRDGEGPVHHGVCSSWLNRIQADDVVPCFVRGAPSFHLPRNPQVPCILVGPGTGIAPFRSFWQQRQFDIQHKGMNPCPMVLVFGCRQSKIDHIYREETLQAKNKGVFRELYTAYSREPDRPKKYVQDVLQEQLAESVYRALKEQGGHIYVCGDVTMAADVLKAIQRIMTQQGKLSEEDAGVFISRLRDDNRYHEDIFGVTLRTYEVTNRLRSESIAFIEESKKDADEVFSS

Nitric oxide synthase 3 = target: T2, Nitric oxide synthase 3 (Bos taurus, UniProt P29473); assay: Inhibition of bovine recombinant eNOS expressed in Escherichia coli by hemoglobin capture assay
T2 sequence (P29473 whole entry): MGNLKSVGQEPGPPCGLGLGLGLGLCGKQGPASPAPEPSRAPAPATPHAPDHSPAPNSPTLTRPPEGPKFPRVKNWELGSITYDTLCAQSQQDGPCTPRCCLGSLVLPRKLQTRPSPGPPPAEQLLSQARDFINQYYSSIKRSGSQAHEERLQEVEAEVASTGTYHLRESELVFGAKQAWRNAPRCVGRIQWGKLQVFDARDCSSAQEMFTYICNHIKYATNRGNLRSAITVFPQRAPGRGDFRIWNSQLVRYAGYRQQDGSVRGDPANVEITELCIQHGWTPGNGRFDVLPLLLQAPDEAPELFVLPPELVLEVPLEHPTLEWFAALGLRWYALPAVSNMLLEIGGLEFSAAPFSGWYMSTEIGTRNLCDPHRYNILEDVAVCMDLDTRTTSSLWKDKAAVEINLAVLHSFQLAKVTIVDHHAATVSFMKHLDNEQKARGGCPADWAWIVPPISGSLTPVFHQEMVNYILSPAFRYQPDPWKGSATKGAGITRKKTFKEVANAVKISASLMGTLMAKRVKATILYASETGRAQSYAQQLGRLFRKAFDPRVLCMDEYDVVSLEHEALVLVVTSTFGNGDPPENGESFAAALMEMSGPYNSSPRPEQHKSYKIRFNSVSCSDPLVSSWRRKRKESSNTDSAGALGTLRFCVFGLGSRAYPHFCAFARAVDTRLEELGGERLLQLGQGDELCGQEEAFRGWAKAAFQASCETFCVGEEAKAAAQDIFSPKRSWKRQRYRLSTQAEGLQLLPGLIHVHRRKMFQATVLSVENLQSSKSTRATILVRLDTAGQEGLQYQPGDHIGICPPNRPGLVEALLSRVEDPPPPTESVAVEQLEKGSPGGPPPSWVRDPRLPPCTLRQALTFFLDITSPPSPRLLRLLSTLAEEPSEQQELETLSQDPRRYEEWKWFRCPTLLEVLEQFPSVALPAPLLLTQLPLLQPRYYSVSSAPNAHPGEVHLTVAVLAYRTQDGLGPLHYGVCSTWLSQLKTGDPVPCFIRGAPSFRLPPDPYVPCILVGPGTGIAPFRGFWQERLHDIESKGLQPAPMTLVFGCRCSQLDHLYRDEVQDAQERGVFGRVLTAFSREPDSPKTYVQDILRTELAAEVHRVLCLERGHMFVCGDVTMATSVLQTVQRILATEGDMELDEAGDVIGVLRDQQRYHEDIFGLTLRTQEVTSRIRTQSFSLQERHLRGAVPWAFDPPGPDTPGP

Nitric oxide synthase 1 = Nitric oxide synthase 1 (Rattus norvegicus, UniProt P29476); assay: Inhibition of rat recombinant nNOS expressed in Escherichia coli by hemoglobin capture assay

Ki [1] [µM]	Ki (Nitric oxide synthase 1) [µM]	SMILES	Ki (Nitric oxide synthase 3) [µM]
50		Cc1cc(N)nc(C[C@@H]2CNC[C@@H]2OCc2ccc(-c3ccc(F)c(Cl)c3)cc2)c1 (racemic)	13.3
		Cc1cc(N)nc(C[C@@H]2CNC[C@@H]2OCc2ccc(-c3ccc(F)c(C)c3)cc2)c1 (racemic)	8
	0.82	Cc1cc(N)nc(C[C@@H]2CNC[C@@H]2OCc2ccc(-c3cccc(C(F)(F)F)c3)cc2)c1 (racemic)	

Source: ChEMBL document CHEMBL1221276, “Structure-based design, synthesis, and biological evaluation of lipophilic-tailed monocationic inhibitors of neuronal nitric oxide synthase” (Bioorg Med Chem, 2010)
